# Assay results: patent publication US20090233958A1, “(+)-BELOXEPIN AND METHODS FOR ITS SYNTHESIS AND USE” (priority 2008, published 2009)
# By UniProt entry, the sequences of proteins in these tests, tags left out.
# UniProt P23975, whole entry: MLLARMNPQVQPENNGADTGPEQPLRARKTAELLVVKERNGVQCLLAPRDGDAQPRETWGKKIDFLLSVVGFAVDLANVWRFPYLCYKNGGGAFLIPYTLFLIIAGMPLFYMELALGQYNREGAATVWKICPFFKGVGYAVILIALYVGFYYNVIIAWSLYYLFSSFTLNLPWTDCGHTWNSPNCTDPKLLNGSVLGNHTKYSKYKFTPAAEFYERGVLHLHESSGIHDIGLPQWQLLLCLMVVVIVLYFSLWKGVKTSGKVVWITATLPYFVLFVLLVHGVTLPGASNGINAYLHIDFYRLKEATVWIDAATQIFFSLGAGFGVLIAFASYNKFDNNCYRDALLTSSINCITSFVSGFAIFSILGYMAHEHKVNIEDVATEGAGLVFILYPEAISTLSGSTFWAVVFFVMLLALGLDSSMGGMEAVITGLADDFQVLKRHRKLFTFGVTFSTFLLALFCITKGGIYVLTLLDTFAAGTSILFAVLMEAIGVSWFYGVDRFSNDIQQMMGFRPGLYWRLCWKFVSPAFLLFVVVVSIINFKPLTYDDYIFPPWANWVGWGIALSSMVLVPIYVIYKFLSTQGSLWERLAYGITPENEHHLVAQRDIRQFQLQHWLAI
# UniProt P10635, whole entry: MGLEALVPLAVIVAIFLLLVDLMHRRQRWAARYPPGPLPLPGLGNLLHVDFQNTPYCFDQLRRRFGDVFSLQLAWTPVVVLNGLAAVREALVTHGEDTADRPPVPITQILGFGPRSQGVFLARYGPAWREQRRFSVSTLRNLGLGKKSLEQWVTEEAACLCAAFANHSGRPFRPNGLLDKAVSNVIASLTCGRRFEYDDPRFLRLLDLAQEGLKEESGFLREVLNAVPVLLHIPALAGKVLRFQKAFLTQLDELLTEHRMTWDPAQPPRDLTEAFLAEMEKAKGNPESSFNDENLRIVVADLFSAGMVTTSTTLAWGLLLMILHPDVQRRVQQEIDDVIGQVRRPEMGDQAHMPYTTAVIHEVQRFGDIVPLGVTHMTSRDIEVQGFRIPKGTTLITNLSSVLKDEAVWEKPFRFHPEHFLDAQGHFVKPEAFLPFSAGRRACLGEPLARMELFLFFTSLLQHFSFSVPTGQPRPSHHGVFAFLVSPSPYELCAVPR
# Key:
# [1] = test system: other monoamine carriers (serotonin and dopamine transporters); details: synaptosomes from rat and primate brain; Sperling & Demling 1997; cited from earlier work
# [2] = molecular target: T1, human NE transporter (hNET) (Homo sapiens, UniProt P23975); assay: NE transporter binding assay ([3H]nisoxetine); details: ratio versus (+) enantiomer
# T1 construct: expressed in transfected cells; host or cells: CHO cells (membranes)
# Protocol: Protocols. For the NE transporter binding assay, [^3H]nisoxetine (1.0 nM) was incubated with various concentrations of test compounds for 2 hours at 4° C. with membranes prepared from Chinese hamster ovary cells (CHO) cells heterologously expressing the cloned human NE transporter (hNET). Bound radioactivity was determined by scintillation spectroscopy.
# human recombinant CYP2D6 = molecular target: T2, human recombinant CYP2D6 (Homo sapiens, UniProt P10635); assay: CYP2D6 inhibition, MAMC substrate, recombinant microsomes; assay type: in vitro ADME; details: ratio versus (−) enantiomer
# T2 construct: purchased BD Bioscience
# Protocol: Protocol. […] The source of the enzyme was microsomes containing human recombinant CYP2D6 obtained from BD Bioscience. Conversion of MAMC to 7-hydroxy-4-(aminomethyl)coumarin was measured using a PerkinElmer Fusion with a 390 nm excitation filter and a 460 nm emission filter.
compound,measurement,setting,value
"Cc1cccc2c1Oc1ccccc1C1(O)CCN(C)CC21 (racemic) [(±)-beloxepin, cis-1,2,3,4,4a,13b-hexahydro-2,10-dimethyldiben-[2,3:6,7]oxepino[4,5c]pyridine-4-a-ol]]",fold less affinity for other monoamine carriers than for noradrenaline reuptake,[1],greater than 100 fold
"Cc1cccc2c1Oc1ccccc1C1(O)CCN(C)CC21 (single isomer, unassigned; (-)) [(−)-beloxepin]","NET affinity, fold higher than the (+) enantiomer",[2],approximately 8 fold
"Cc1cccc2c1Oc1ccccc1C1(O)CCN(C)CC21 (single isomer, unassigned; (+)) [(+)-beloxepin]","CYP2D6 inhibition, fold more active than the (−) enantiomer",human recombinant CYP2D6,approximately 18 fold
